Consider one molecule from US20100093760A1, “METHODS FOR IDENTIFYING COMPOUNDS THAT MODULATE CELL SIGNALING AND METHODS EMPLOYING SUCH COMPOUNDS” (The General Hospital Corporation, priority 2006, published 2010).

For test [1], the system named is hepcidin promoter. Put plainly: Hepcidin promoter luciferase reporter assay (Hep-Luc) in Hep3B cells. It counts as cell-based. As to conditions: BMP2 25 ng/ml. The procedure:
Murine PASMCs grown to 50% confluence in 6-well plates were transiently transfected with 0.3 μg Id1 promoter luciferase reporter construct (BRE-Luc, Dr. Peter ten Dijke, Leiden University Medical Center, Netherlands (Korchynskyi et al., J. Biol. Chem. 277:4883-4891, 2002)) in combination with 0.6 μg plasmids expressing constitutively-active forms of BMP type I receptors (caALK2, caALK3, or caALK6, kindly provided by Dr. Kohei Miyazono, University of Tokyo, Japan (Fujii et al., Mol. Biol. Cell 10:3801-3813, 1999)), using Fugene6 (Roche). To assess Activin and […] type I receptor function, PASMCs were transiently transfected with 0.3 μg PAI-1 promoter luciferase reporter construct (CAGA-Luc, Dr. Peter ten Dijke (Dennler et al., Embo J. 17:3091-3100, 1998)) in combination with 0.6 μg plasmids expressing constitutively active forms of type I receptors (caALK4, caALK5, and caALK7, also provided by Dr. Kohei Miyazono (Okadome et al., J. Biol. Chem. 271:21687-21690, 1996; Shimizu et al., Genes Cells 3:125-134, 1998)). For both reporters, 0.2 μg pRL-TK Renilla luciferase (Promega) was used to control for transfection efficiency. […] Cell extracts were harvested, and relative promoter activity quantitated by the ratio of firefly to Renilla luciferase activity using the dual luciferase assay kit (Promega). […] Hepcidin promoter activity was measured by luciferase assay as above.
On the technique in general: A reporter such as luciferase makes a cellular process visible.

The test system of test [2] is hepcidin (HAMP) mRNA. Put plainly: Hepcidin mRNA qRT-PCR in HepG2 cells. As to conditions: BMP2. It counts as cell-based, human. As for the experimental part:
Hep3B or HepG2 cells were incubated in 1% FCS α-MEM for 6 hours in the presence or absence of Compound C/Dorsomorphin (10 μM) with or without BMP2 (25 ng/ml) or human IL-6 (R&D Biosystems, 100 ng/ml), and RNA then extracted from cultured cells with Trizol. Quantitative RT-PCR was performed for mRNA encoding Id1 or human hepcidin (HAMP) as previously described (Babitt et al., Nat. Genet. 38:531-539, 2006; Yu et al., J. Biol. Chem. 280:24443-24450, 2005), and normalized to 18S ribosomal RNA (rRNA) or β-actin mRNA levels.
A general note: Quantitative PCR measures a nucleic acid by following its amplification.

B1: BMP2: recombinant bone morphogenetic protein ligand (R&D Systems) (protein, UniProt P12643 283-396, looked up)
Bone morphogenetic protein 2: QAKHKQRKRLKSSCKRHPLYVDFSDVGWNDWIVAPPGYHAFYCHGECPFPLADHLNSTNHAIVQTLVNSVNSKIPKACCVPTELSAISMLYLDENEKVVLKNYQDMVVEGCGCR
Turning to B1, the “increase in hepcidin promoter activity (Hep-Luc)” value in test [1] is on record as ~50 fold. Moreover, the “increase in hepcidin mRNA over the basal level” value in test [2] worked out at 16 fold.
